Laboratory results taken from patent US9840464B2, “IAP binding compounds” (TetraLogic Birinapant UK Ltd., priority 2004, dated 2017).

The chains behind the UniProt entries cited, without tags or fusion partners. Residues count along the entry.
UniProt P98170, 241-356 limits assumed: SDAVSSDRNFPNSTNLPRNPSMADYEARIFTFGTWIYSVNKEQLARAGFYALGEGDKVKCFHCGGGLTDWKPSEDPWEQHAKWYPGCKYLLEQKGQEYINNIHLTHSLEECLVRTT

molecular target: XIAP-BIR3 (Homo sapiens, UniProt P98170); test: XIAP BIR3 fluorescence polarization binding assay (competition with AbuRPF-K(5-Fam)-NH2); details: read-out: KD Range; 5 nM AbuRPF-K(5-Fam)-NH2, 40 nM XIAP-BIR3, pH 7.5; Kd calculated from measured IC50
Procedure: Binding constants (Kd) were measured using fluorescence polarization as described by Zaneta Nikolovska-Coleska, Renxiao Wang, Xueliang Fang, Hongguang Pan, York Tomita, Peng Li, Peter P. Roller, Krzysztof Krajewski, Naoyuki Saito, Jeanne Stuckey and Shaomeng Wang, in “Development and Optimization of a Binding Assay for the XIAP BIR3 Domain Using Fluorescence Polarization”, Analytical Biochemistry 2004, 332, 261-273). Briefly, test IAP binding compounds at various concentrations for binding measurements were mixed with 5 nM fluorescently labeled peptide (AbuRPF-K(5-Fam)-NH2) and 40 nM of XIAP-BIR3 for 15 minutes at room temperature in 100 μL of 0.1M Potassium Phosphate buffer, pH 7.5 containing 100 μg/ml bovine γ-globulin. Following incubation, the polarization values (mP) were measured on a Victor^2V using a 485 nm excitation filter and a 520 nm emission filter. IC50 values were determined from the plot using nonlinear least-squares analysis using GraphPad Prism. The Kd values of competitive inhibitors were calculated using the equation described by Zaneta Nikolovska-Coleska et al. based upon the measured IC50 values, the Kd value of the probe and XIAP BIR3 complex, and the concentrations of the protein and probe in the competition assay. In various examples of IAP binding or IAP binding cargo molecules ranges for Kd values: Group A: Kd<0.1 μM; Group B: Kd=0.1-1 μM; Group C: Kd=1-10 μM; Group D: Kd>10 μM.

Kd	Compound
1000 to 10000 nM	CC(C)N[C@@H](C)C(=O)N[C@H](C(=O)N1CCC[C@H]1Cc1coc2ccccc12)C(C)C
< 100 nM	CN[C@@H](C)C(=O)N[C@H](C(=O)N1CCC[C@H]1Cc1coc2ccc(C)cc12)C(C)C
1000 to 10000 nM	CN[C@@H](C)C(=O)N[C@H](C(=O)N1CCC[C@H]1Cc1c[nH]c2c(OCc3ccccc3)cccc12)C(C)C
< 100 nM	CN[C@@H](C)C(=O)N[C@H](C(=O)N1CCC[C@H]1Cc1coc2ccc(F)cc12)C(C)C
100 to 1000 nM	CC(C)[C@H](NC(=O)[C@@H]1CCN1)C(=O)N1CCC[C@H]1Cc1coc2ccccc12
> 10000 nM	C#CCN[C@@H](C)C(=O)N[C@H](C(=O)N1CCC[C@H]1Cc1coc2ccccc12)C(C)C
1000 to 10000 nM	CC(C)[C@H](NC(=O)[C@H](C)N)C(=O)N1C[C@@H](Oc2ccccc2)C[C@H]1/C=C/COc1ccccc1C1CCCC1
100 to 1000 nM	CC(C)[C@H](NC(=O)[C@H](C)N)C(=O)N1C[C@@H](Oc2ccccc2)C[C@H]1CCCOc1ccccc1-c1ccccc1
100 to 1000 nM	CC(C)[C@H](NC(=O)[C@H](C)N)C(=O)N1CCC[C@H]1Cc1coc2ccc(OCc3ccccc3)cc12
100 to 1000 nM	CC(C)[C@H](NC(=O)[C@H](C)N)C(=O)N1CCC[C@H]1COc1cccc2c1CCCC2
100 to 1000 nM	CC(C)[C@H](NC(=O)[C@H](C)N)C(=O)N1CCC[C@H]1Cc1c(-c2ccccc2)oc2ccccc12

Compound	Kd
CC(C)[C@H](NC(=O)[C@@H]1CN1)C(=O)N1CCC[C@H]1Cc1coc2ccccc12	> 10000 nM
